Reference: PubChem BioAssay (NCI)
Some results for these compounds are left out of this collection, so the calls shown say nothing about other tests.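 Step 1: Grow cells in 96-well plates. Step 2: Expose to compound for 48 hours at 5 concentrations. Step 3: Interpolate endpoints linearly; if unreached, use highest concentration. GI50 = concentration required for 50% inhibition of growth. TGI: total growth inhibition.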

Columns and labels:
Assay in all cases: NCI tumour cell line growth inhibition, 48 h
HT29 colon = test system: HT29 colon
EKVX NSCLC = test system: EKVX NSCLC
SF-539 CNS = test system: SF-539 CNS
RXF 393 renal = test system: RXF 393 renal
UACC-62 melanoma = test system: UACC-62 melanoma
SK-MEL-2 melanoma = test system: SK-MEL-2 melanoma
MCF7 breast = test system: MCF7 breast
SF-268 CNS = test system: SF-268 CNS
SK-MEL-28 melanoma = test system: SK-MEL-28 melanoma
SR leukemia = test system: SR leukemia
NCI/ADR-RES ovarian = test system: NCI/ADR-RES ovarian
PC-3 prostate = test system: PC-3 prostate
786-0 renal = test system: 786-0 renal
UO-31 renal = test system: UO-31 renal
TK-10 renal = test system: TK-10 renal
CCRF-CEM leukemia = test system: CCRF-CEM leukemia
U251 CNS = test system: U251 CNS
OVCAR-4 ovarian = test system: OVCAR-4 ovarian
KM12 colon = test system: KM12 colon
SK-OV-3 ovarian = test system: SK-OV-3 ovarian
HCC-2998 colon = test system: HCC-2998 colon
RPMI-8226 leukemia = test system: RPMI-8226 leukemia
MOLT-4 leukemia = test system: MOLT-4 leukemia
ACHN renal = test system: ACHN renal
MDA-MB-435 = test system: MDA-MB-435
HCT-15 colon = test system: HCT-15 colon
NCI-H226 lung = test system: NCI-H226 lung
NCI-H460 lung = test system: NCI-H460 lung
BT-549 breast = test system: BT-549 breast
K-562 leukemia = test system: K-562 leukemia
SN12C renal = test system: SN12C renal
HL-60(TB) leukemia = test system: HL-60(TB) leukemia
HOP-62 NSCLC = test system: HOP-62 NSCLC
M14 melanoma = test system: M14 melanoma
HCT-116 colon = test system: HCT-116 colon
COLO 205 colon = test system: COLO 205 colon
OVCAR-3 ovarian = test system: OVCAR-3 ovarian
A498 renal = test system: A498 renal
DU-145 prostate = test system: DU-145 prostate
HS 578T breast = test system: HS 578T breast
CAKI-1 renal = test system: CAKI-1 renal
SW-620 colon = test system: SW-620 colon
MDA-MB-231 breast = test system: MDA-MB-231 breast
OVCAR-5 ovarian = test system: OVCAR-5 ovarian
SNB-19 CNS = test system: SNB-19 CNS
T-47D breast = test system: T-47D breast
UACC-257 melanoma = test system: UACC-257 melanoma
SNB-75 CNS = test system: SNB-75 CNS
NCI-H23 lung = test system: NCI-H23 lung
HOP-92 NSCLC = test system: HOP-92 NSCLC
LOX IMVI melanoma = test system: LOX IMVI melanoma
OVCAR-8 ovarian = test system: OVCAR-8 ovarian
IGROV1 ovarian = test system: IGROV1 ovarian
SK-MEL-5 melanoma = test system: SK-MEL-5 melanoma
SF-295 CNS = test system: SF-295 CNS
MDA-N = test system: MDA-N
A549 NSCLC = test system: A549 NSCLC

Question: Which GI50 (HT29 colon) does the source give for CCCC/C=C\C(O)(C(=O)OC1CN2CCC1CC2)c1ccccc1 (centres undefined) here?
Answer: > 100 µM

Question: What about the TGI (HT29 colon) of the same molecule?
Answer: > 100 µM

Question: What about the GI50 (EKVX NSCLC) of the same molecule?
Answer: > 100 µM

Question: What about the TGI (EKVX NSCLC) of the same molecule?
Answer: > 100 µM

Question: And the GI50 (SF-539 CNS)?
Answer: > 100 µM

Question: What about the TGI (SF-539 CNS) of the same molecule?
Answer: > 100 µM

Question: And the GI50 (RXF 393 renal)?
Answer: > 100 µM

Question: What about the TGI (RXF 393 renal) of the same molecule?
Answer: > 100 µM

Question: What about the GI50 (UACC-62 melanoma) of the same molecule?
Answer: > 100 µM

Question: What about the TGI (UACC-62 melanoma) of the same molecule?
Answer: > 100 µM

Question: What about the GI50 (SK-MEL-2 melanoma) of the same molecule?
Answer: > 100 µM

Question: And the TGI (SK-MEL-2 melanoma)?
Answer: > 100 µM

Question: And the GI50 (MCF7 breast)?
Answer: > 100 µM

Question: What about the TGI (MCF7 breast) of the same molecule?
Answer: > 100 µM

Question: What about the GI50 (SF-268 CNS) of the same molecule?
Answer: > 100 µM

Question: And the TGI (SF-268 CNS)?
Answer: > 100 µM

Question: What about the GI50 (SK-MEL-28 melanoma) of the same molecule?
Answer: > 100 µM

Question: What about the TGI (SK-MEL-28 melanoma) of the same molecule?
Answer: > 100 µM

Question: And the GI50 (SR leukemia)?
Answer: > 100 µM

Question: What about the TGI (SR leukemia) of the same molecule?
Answer: > 100 µM

Question: And the GI50 (NCI/ADR-RES ovarian)?
Answer: > 100 µM

Question: And the TGI (NCI/ADR-RES ovarian)?
Answer: > 100 µM

Question: And the GI50 (PC-3 prostate)?
Answer: > 100 µM

Question: What about the TGI (PC-3 prostate) of the same molecule?
Answer: > 100 µM

Question: And the GI50 (786-0 renal)?
Answer: > 100 µM

Question: And the TGI (786-0 renal)?
Answer: > 100 µM

Question: What about the GI50 (UO-31 renal) of the same molecule?
Answer: > 100 µM

Question: And the TGI (UO-31 renal)?
Answer: > 100 µM

Question: What about the GI50 (TK-10 renal) of the same molecule?
Answer: > 100 µM

Question: And the TGI (TK-10 renal)?
Answer: > 100 µM

Question: And the GI50 (CCRF-CEM leukemia)?
Answer: > 100 µM

Question: And the TGI (CCRF-CEM leukemia)?
Answer: > 100 µM

Question: What about the GI50 (U251 CNS) of the same molecule?
Answer: > 100 µM

Question: And the TGI (U251 CNS)?
Answer: > 100 µM

Question: And the GI50 (OVCAR-4 ovarian)?
Answer: > 100 µM

Question: And the TGI (OVCAR-4 ovarian)?
Answer: > 100 µM

Question: What about the GI50 (KM12 colon) of the same molecule?
Answer: > 100 µM

Question: What about the TGI (KM12 colon) of the same molecule?
Answer: > 100 µM

Question: What about the GI50 (SK-OV-3 ovarian) of the same molecule?
Answer: > 100 µM

Question: What about the TGI (SK-OV-3 ovarian) of the same molecule?
Answer: > 100 µM

Question: What about the GI50 (HCC-2998 colon) of the same molecule?
Answer: > 100 µM

Question: What about the TGI (HCC-2998 colon) of the same molecule?
Answer: > 100 µM

Question: What about the GI50 (RPMI-8226 leukemia) of the same molecule?
Answer: > 100 µM

Question: What about the TGI (RPMI-8226 leukemia) of the same molecule?
Answer: > 100 µM

Question: And the GI50 (MOLT-4 leukemia)?
Answer: > 100 µM

Question: And the TGI (MOLT-4 leukemia)?
Answer: > 100 µM

Question: What about the GI50 (ACHN renal) of the same molecule?
Answer: > 100 µM

Question: And the TGI (ACHN renal)?
Answer: > 100 µM

Question: What about the GI50 (MDA-MB-435) of the same molecule?
Answer: > 100 µM

Question: And the TGI (MDA-MB-435)?
Answer: > 100 µM

Question: And the GI50 (HCT-15 colon)?
Answer: > 100 µM

Question: What about the TGI (HCT-15 colon) of the same molecule?
Answer: > 100 µM

Question: What about the GI50 (NCI-H226 lung) of the same molecule?
Answer: > 100 µM

Question: And the TGI (NCI-H226 lung)?
Answer: > 100 µM

Question: What about the GI50 (NCI-H460 lung) of the same molecule?
Answer: > 100 µM

Question: What about the TGI (NCI-H460 lung) of the same molecule?
Answer: > 100 µM

Question: And the GI50 (BT-549 breast)?
Answer: > 100 µM

Question: What about the TGI (BT-549 breast) of the same molecule?
Answer: > 100 µM

Question: And the GI50 (K-562 leukemia)?
Answer: > 100 µM

Question: What about the TGI (K-562 leukemia) of the same molecule?
Answer: > 100 µM

Question: What about the GI50 (SN12C renal) of the same molecule?
Answer: > 100 µM

Question: What about the TGI (SN12C renal) of the same molecule?
Answer: > 100 µM

Question: What about the GI50 (HL-60(TB) leukemia) of the same molecule?
Answer: > 100 µM

Question: What about the TGI (HL-60(TB) leukemia) of the same molecule?
Answer: > 100 µM

Question: And the GI50 (HOP-62 NSCLC)?
Answer: > 100 µM

Question: What about the TGI (HOP-62 NSCLC) of the same molecule?
Answer: > 100 µM

Question: What about the GI50 (M14 melanoma) of the same molecule?
Answer: > 100 µM

Question: And the TGI (M14 melanoma)?
Answer: > 100 µM

Question: And the GI50 (HCT-116 colon)?
Answer: > 100 µM

Question: And the TGI (HCT-116 colon)?
Answer: > 100 µM

Question: What about the GI50 (COLO 205 colon) of the same molecule?
Answer: > 100 µM

Question: What about the TGI (COLO 205 colon) of the same molecule?
Answer: > 100 µM

Question: And the GI50 (OVCAR-3 ovarian)?
Answer: > 100 µM

Question: And the TGI (OVCAR-3 ovarian)?
Answer: > 100 µM

Question: What about the GI50 (A498 renal) of the same molecule?
Answer: > 100 µM

Question: What about the TGI (A498 renal) of the same molecule?
Answer: > 100 µM

Question: What about the GI50 (DU-145 prostate) of the same molecule?
Answer: > 100 µM

Question: And the TGI (DU-145 prostate)?
Answer: > 100 µM

Question: And the GI50 (HS 578T breast)?
Answer: 24.7 µM

Question: What about the TGI (HS 578T breast) of the same molecule?
Answer: > 100 µM

Question: What about the GI50 (CAKI-1 renal) of the same molecule?
Answer: > 100 µM

Question: And the TGI (CAKI-1 renal)?
Answer: > 100 µM

Question: And the GI50 (SW-620 colon)?
Answer: > 100 µM

Question: What about the TGI (SW-620 colon) of the same molecule?
Answer: > 100 µM

Question: What about the GI50 (MDA-MB-231 breast) of the same molecule?
Answer: > 100 µM

Question: And the TGI (MDA-MB-231 breast)?
Answer: > 100 µM

Question: And the GI50 (OVCAR-5 ovarian)?
Answer: > 100 µM

Question: And the TGI (OVCAR-5 ovarian)?
Answer: > 100 µM

Question: What about the GI50 (SNB-19 CNS) of the same molecule?
Answer: > 100 µM

Question: And the TGI (SNB-19 CNS)?
Answer: > 100 µM

Question: And the GI50 (T-47D breast)?
Answer: > 100 µM

Question: And the TGI (T-47D breast)?
Answer: > 100 µM

Question: What about the GI50 (UACC-257 melanoma) of the same molecule?
Answer: > 100 µM

Question: What about the TGI (UACC-257 melanoma) of the same molecule?
Answer: > 100 µM

Question: And the GI50 (SNB-75 CNS)?
Answer: > 100 µM

Question: And the TGI (SNB-75 CNS)?
Answer: > 100 µM

Question: And the GI50 (NCI-H23 lung)?
Answer: > 100 µM

Question: What about the TGI (NCI-H23 lung) of the same molecule?
Answer: > 100 µM

Question: What about the GI50 (HOP-92 NSCLC) of the same molecule?
Answer: > 100 µM

Question: And the TGI (HOP-92 NSCLC)?
Answer: > 100 µM

Question: And the GI50 (LOX IMVI melanoma)?
Answer: > 100 µM

Question: And the TGI (LOX IMVI melanoma)?
Answer: > 100 µM

Question: What about the GI50 (OVCAR-8 ovarian) of the same molecule?
Answer: > 100 µM

Question: What about the TGI (OVCAR-8 ovarian) of the same molecule?
Answer: > 100 µM

Question: What about the GI50 (IGROV1 ovarian) of the same molecule?
Answer: > 100 µM

Question: And the TGI (IGROV1 ovarian)?
Answer: > 100 µM

Question: What about the GI50 (SK-MEL-5 melanoma) of the same molecule?
Answer: > 100 µM

Question: And the TGI (SK-MEL-5 melanoma)?
Answer: > 100 µM

Question: What about the GI50 (SF-295 CNS) of the same molecule?
Answer: > 100 µM

Question: What about the TGI (SF-295 CNS) of the same molecule?
Answer: > 100 µM

Question: And the GI50 (MDA-N)?
Answer: > 100 µM

Question: And the TGI (MDA-N)?
Answer: > 100 µM

Question: What about the GI50 (A549 NSCLC) of the same molecule?
Answer: > 100 µM

Question: And the TGI (A549 NSCLC)?
Answer: > 100 µM
